Assay results as given in US20160024487.

How the values were obtained:
[1] = tested on: Lys(Dnp)-ATNATX4X3PRIVGG-Lys(Abz), X4 = T, X3 = G
[2] = tested on: Lys(Dnp)-ATNATAQPRIVGG-Lys(Abz)
[3] = tested on: Lys(Dnp)-ATNATWTPRIVGG-Lys(Abz)
[4] = tested on: Lys(Dnp)-ATNATGTPRIVGG-Lys(Abz)
[5] = tested on: Lys(Dnp)-ATNATNYPRIVGG-Lys(Abz)
[6] = tested on: Lys(Dnp)-ATNATX4X3PRIVGG-Lys(Abz), X4 = N, X3 = S
[7] = tested on: Lys(Dnp)-ATNATX4X3PRIVGG-Lys(Abz), X4 = H, X3 = R
[8] = tested on: Lys(Dnp)-ATNATMKPRIVGG-Lys(Abz)
[9] = tested on: Lys(Dnp)-ATNATX4X3PRIVGG-Lys(Abz), X4 = G, X3 = P
[10] = tested on: Lys(Dnp)-ATNATX4X3PRIVGG-Lys(Abz), X4 = S, X3 = Q
[11] = tested on: Lys(Dnp)-ATNATLFPRIVGG-Lys(Abz)
[12] = tested on: Lys(Dnp)-ATNATMTPRIVGG-Lys(Abz)
[13] = tested on: Lys(Dnp)-ATNATGYPRIVGG-Lys(Abz)
[14] = tested on: Lys(Dnp)-HTHHAPLSPRIVGG-Lys(Abz)
[15] = tested on: Lys(Dnp)-ATNATPTPRIVGG-Lys(Abz)
[16] = tested on: Lys(Dnp)-ATNATGKPRIVGG-Lys(Abz)
[17] = tested on: Lys(Dnp)-ATNATIHPRIVGG-Lys(Abz)
[18] = tested on: Lys(Dnp)-ATNATVTPRIVGG-Lys(Abz)
[19] = tested on: Lys(Dnp)-ATNATX4X3PRIVGG-Lys(Abz), X4 = H, X3 = G
[20] = tested on: Lys(Dnp)-ATNATMWPRIVGG-Lys(Abz)
[21] = tested on: Lys(Dnp)-ATNATWFPRIVGG-Lys(Abz)
[22] = tested on: Lys(Dnp)-ATNATYAPRIVGG-Lys(Abz)
[23] = tested on: Lys(Dnp)-ATNATMPPRIVGG-Lys(Abz)
[24] = tested on: Lys(Dnp)-ATNATDYPRIVGG-Lys(Abz)
[25] = tested on: Lys(Dnp)-ATNATX4X3PRIVGG-Lys(Abz), X4 = N, X3 = G
[26] = tested on: Lys(Dnp)-ATNATFDPRIVGG-Lys(Abz)
[27] = tested on: Lys(Dnp)-ATNATVDPRIVGG-Lys(Abz)
[28] = tested on: Lys(Dnp)-ATNATSTPRIVGG-Lys(Abz)
[29] = tested on: Lys(Dnp)-ATNATLEPRIVGG-Lys(Abz)
[30] = tested on: Lys(Dnp)-ATNATX4X3PRIVGG-Lys(Abz), X4 = T, X3 = E
[31] = tested on: Lys(Dnp)-ATNATLYPRIVGG-Lys(Abz)
[32] = tested on: Lys(Dnp)-ATNATX4X3PRIVGG-Lys(Abz), X4 = H, X3 = Q
[33] = tested on: Lys(Dnp)-ATNATAEPRIVGG-Lys(Abz)
[34] = tested on: Lys(Dnp)-ATNATSGPRIVGG-Lys(Abz)
[35] = tested on: Lys(Dnp)-ATNATLWPRIVGG-Lys(Abz)
[36] = tested on: Lys(Dnp)-ATNATPVPRIVGG-Lys(Abz)
[37] = tested on: Lys(Dnp)-ATNATNHPRIVGG-Lys(Abz)
[38] = tested on: Lys(Dnp)-ATNATAHPRIVGG-Lys(Abz)
[39] = tested on: Lys(Dnp)-ATNATX4X3PRIVGG-Lys(Abz), X4 = G, X3 = S
[40] = tested on: Lys(Dnp)-ATNATYWPRIVGG-Lys(Abz)
[41] = tested on: Lys(Dnp)-ATNATX4X3PRIVGG-Lys(Abz), X4 = P, X3 = E
[42] = tested on: Lys(Dnp)-ATNATARPRIVGG-Lys(Abz)
[43] = tested on: Lys(Dnp)-ATNATLDPRIVGG-Lys(Abz)

## Human plasma purified α-thrombin
[1]
  FIIa kcat/KM: 770 M⁻¹ s⁻¹
  Specificity Ratio (FIIa/FXa): 37
[2]
  FIIa kcat/KM: 12000 M⁻¹ s⁻¹
  Specificity Ratio (FIIa/FXa): 27
  kcat/KM: 12000 M⁻¹ s⁻¹
[3]
  FIIa kcat/KM: 16000 M⁻¹ s⁻¹
  Functional Selectivity (Specificity*FIIa kcat/KM): 5.8e+06
  kcat/KM: 16000 M⁻¹ s⁻¹
[4]
  FIIa kcat/KM: 2700 M⁻¹ s⁻¹
  Specificity Ratio (FIIa/FXa): 46
  kcat/KM: 2700 M⁻¹ s⁻¹
[5]
  kcat/KM: 780 M⁻¹ s⁻¹
[6]
  FIIa kcat/KM: 640 M⁻¹ s⁻¹
  Specificity Ratio (FIIa/FXa): 39
[7]
  FIIa kcat/KM: 2200 M⁻¹ s⁻¹
  Specificity Ratio (FIIa/FXa): 15
[8]
  FIIa kcat/KM: 23000 M⁻¹ s⁻¹
  Functional Selectivity (Specificity*FIIa kcat/KM): 7e+06
  kcat/KM: 23000 M⁻¹ s⁻¹
[9]
  FIIa kcat/KM: 430 M⁻¹ s⁻¹
  Specificity Ratio (FIIa/FXa): 57
[10]
  FIIa kcat/KM: 1200 M⁻¹ s⁻¹
  Specificity Ratio (FIIa/FXa): 27
[11]
  FIIa kcat/KM: 15000 M⁻¹ s⁻¹
  Functional Selectivity (Specificity*FIIa kcat/KM): 2.3e+06
  kcat/KM: 15000 M⁻¹ s⁻¹
[12]
  FIIa kcat/KM: 32000 M⁻¹ s⁻¹
  Functional Selectivity (Specificity*FIIa kcat/KM): 1.1e+07
  kcat/KM: 32000 M⁻¹ s⁻¹
[13]
  kcat/KM: 1500 M⁻¹ s⁻¹
[14]
  FIIa kcat/KM: 31000 M⁻¹ s⁻¹
  Functional Selectivity (Specificity*FIIa kcat/KM): 9.5e+06
  Specificity Ratio (FIIa/FXa): 302
  kcat/KM: 31000 M⁻¹ s⁻¹
[15]
  FIIa kcat/KM: 22000 M⁻¹ s⁻¹
  Specificity Ratio (FIIa/FXa): 26
  kcat/KM: 22000 M⁻¹ s⁻¹
[16]
  kcat/KM: 1200 M⁻¹ s⁻¹
[17]
  FIIa kcat/KM: 26000 M⁻¹ s⁻¹
  Functional Selectivity (Specificity*FIIa kcat/KM): 830000
  kcat/KM: 26000 M⁻¹ s⁻¹
[18]
  FIIa kcat/KM: 16000 M⁻¹ s⁻¹
  Functional Selectivity (Specificity*FIIa kcat/KM): 3.7e+06
  kcat/KM: 16000 M⁻¹ s⁻¹
[19]
  FIIa kcat/KM: 1000 M⁻¹ s⁻¹
  Specificity Ratio (FIIa/FXa): 22
[20]
  FIIa kcat/KM: 18000 M⁻¹ s⁻¹
  Specificity Ratio (FIIa/FXa): 28
  kcat/KM: 18000 M⁻¹ s⁻¹
[21]
  FIIa kcat/KM: 2400 M⁻¹ s⁻¹
  Specificity Ratio (FIIa/FXa): 49
  kcat/KM: 2400 M⁻¹ s⁻¹
[22]
  FIIa kcat/KM: 4800 M⁻¹ s⁻¹
  Specificity Ratio (FIIa/FXa): 98
  kcat/KM: 4800 M⁻¹ s⁻¹
[23]
  FIIa kcat/KM: 990 M⁻¹ s⁻¹
  Specificity Ratio (FIIa/FXa): 241
  kcat/KM: 990 M⁻¹ s⁻¹
[24]
  kcat/KM: 410 M⁻¹ s⁻¹
[25]
  FIIa kcat/KM: 500 M⁻¹ s⁻¹
  Specificity Ratio (FIIa/FXa): 55
[26]
  kcat/KM: 1300 M⁻¹ s⁻¹
[27]
  kcat/KM: 1100 M⁻¹ s⁻¹
[28]
  kcat/KM: 1400 M⁻¹ s⁻¹
[29]
  FIIa kcat/KM: 14000 M⁻¹ s⁻¹
  Specificity Ratio (FIIa/FXa): 20
  kcat/KM: 14000 M⁻¹ s⁻¹
[30]
  FIIa kcat/KM: 700 M⁻¹ s⁻¹
  Specificity Ratio (FIIa/FXa): 47
[31]
  FIIa kcat/KM: 21000 M⁻¹ s⁻¹
  Functional Selectivity (Specificity*FIIa kcat/KM): 2.7e+06
  kcat/KM: 21000 M⁻¹ s⁻¹
[32]
  FIIa kcat/KM: 1800 M⁻¹ s⁻¹
  Specificity Ratio (FIIa/FXa): 11
[33]
  kcat/KM: 3300 M⁻¹ s⁻¹
[34]
  kcat/KM: 770 M⁻¹ s⁻¹
[35]
  FIIa kcat/KM: 36000 M⁻¹ s⁻¹
  Functional Selectivity (Specificity*FIIa kcat/KM): 1.3e+06
  kcat/KM: 36000 M⁻¹ s⁻¹
[36]
  kcat/KM: 13000 M⁻¹ s⁻¹
[37]
  kcat/KM: 660 M⁻¹ s⁻¹
[38]
  FIIa kcat/KM: 7400 M⁻¹ s⁻¹
  Specificity Ratio (FIIa/FXa): 52
  kcat/KM: 7400 M⁻¹ s⁻¹
[39]
  FIIa kcat/KM: 1300 M⁻¹ s⁻¹
  Specificity Ratio (FIIa/FXa): 26
[40]
  FIIa kcat/KM: 6400 M⁻¹ s⁻¹
  Functional Selectivity (Specificity*FIIa kcat/KM): 760000
  kcat/KM: 6400 M⁻¹ s⁻¹
[41]
  FIIa kcat/KM: 7500 M⁻¹ s⁻¹
  Specificity Ratio (FIIa/FXa): 7
[42]
  Functional Selectivity (Specificity*FIIa kcat/KM): 1.1e+06

## Human plasma purified alpha-thrombin
[43]
  FIIa kcat/KM: 3100 M⁻¹ s⁻¹
  Specificity Ratio (FIIa/FXa): 3
